AlphaSeq binding of Ab-14 light chain variants to a spike HR2 peptide

The target is the same throughout: PDVDLGDISGINAS, from the HR2 region of SARS-CoV-2 spike.

Parent scFv Ab-14: VH joined to VL by the linker GGGGSGGGGSGGGGS. Changes lie in the light chain CDRs alone.
VH: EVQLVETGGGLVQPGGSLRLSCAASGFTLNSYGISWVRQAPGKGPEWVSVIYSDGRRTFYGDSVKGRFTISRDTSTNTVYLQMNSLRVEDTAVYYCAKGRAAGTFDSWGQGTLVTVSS
VL: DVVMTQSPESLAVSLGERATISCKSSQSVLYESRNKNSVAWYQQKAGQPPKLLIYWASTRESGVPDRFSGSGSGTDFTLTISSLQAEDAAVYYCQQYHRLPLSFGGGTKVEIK

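Phage display of a naive human antibody library on the peptide gave the parent. These sequences belong to a second round, designed from the earlier measurements on random variants of the parent. Several design methods are mixed in this list. The assay is AlphaSeq: two haploid yeast populations carry antibody and antigen on their surface. The frequency of each diploid, read from paired DNA barcodes, reflects how well the two displayed proteins bind. Each replicate has its own calibration line, from reference interactions of the BCL2 family. There are six technical replicates.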

Each variant is given by its three light chain CDRs, as the data file delimits them; those of the parent are KSSQSVLYESRNKNSVA, WASTRES, QQYHRLPLS.
Each Kd is an estimate from the mating assay, the geometric mean of the replicates in which the pair was seen; lower is stronger.
Where no diploid with the target was found in any replicate, the entry reads "not detected": below detection, most likely a poor binder, though not proof of it.

| Kd (apparent) | replicates with signal | CDR-L1 | CDR-L2 | CDR-L3 |
|---|---|---|---|---|
| 4.6 nM | 4/6 | TISQLHNMGTFAINSVA | QASIRNA | QQYDRLPLA |
| 89 nM | 5/6 | KVSEFMRGLMMLKDSIA | DNQTRES | QQYDRLPLS |
| 11 nM | 6/6 | KLYMSTGFESRNKDSIA | DNSTRGR | QQYHRLPLS |
| 2.9 nM | 6/6 | SLKTMPGEIPKEYNSIA | HAELRTP | QQYHRLPLI |
| 900 pM | 6/6 | HSSPSVEYESRNKNSVA | NASVRES | QQYHRLPLS |
| 2.0 nM | 6/6 | KLSQSVGYESRNKNSVA | QASTRES | QQYHRLPLS |
| 4.8 nM | 6/6 | KISMMYNFAQTNKNSIA | EMTTRES | QHYHRLPLS |
| 16 nM | 6/6 | KIGAVTNGISRSKNSVA | EQSTRED | QQYNRLPLS |
| not detected | 0/6 | KFSQSVFYESHNKNSVA | WASTCES | QQYHRLPLS |
| 130 nM | 4/6 | FFSLIQGSYGEANNSIA | ERNERAM | QQYGRLPLV |
| 16 nM | 6/6 | LLQQDFYNERNQANAVA | DGNQLAN | QDYARLPLV |
| 1.9 nM | 6/6 | KLSMSVMMESRNKNSVA | SANTRME | QQYHRLPLS |
| 6.1 nM | 6/6 | KLSIIGLHESIDKKSIA | ERSTREN | QQYHRLPLS |
| 8.6 nM | 6/6 | MMSQVTGMGQRQRNNVA | QTSTREE | QQYDRLPLI |
| 3.9 nM | 6/6 | HLKTMPGQGPQTYSSIA | HAEIREP | QQYYRLPLM |
| 2.5 nM | 6/6 | RIEDHHAEGEMRHNSIA | EESYRMD | QHYSRLPLA |
| 890 pM | 6/6 | KVSQSHLYEQRNKNSVA | NASTRES | QQYHRLPLS |
| 2.9 nM | 6/6 | KLYQSQLYDSRNKNSVA | QASHREV | QQYHRLPLS |
| 11 nM | 6/6 | MISQLYNMGTFAINSVA | QASLRND | QQYDRLPLA |
| 2.8 nM | 6/6 | KSSGSVQGEDRNSNSVA | NASQRES | QQYHRLPLS |
| 1.7 nM | 6/6 | KITATMRFEQSKSNNIA | EVTQRSK | QQYYRLPLA |
| 1.7 nM | 6/6 | KSSQSVLGEQRNCNSVA | DISTRES | QQYHRLPLS |
| 220 nM | 6/6 | KSSQSVLYESRFKNSVA | WGSTRES | QQYHRLPLS |
| not detected | 0/6 | KSLQSVLYESRNKNRVA | HASTRMD | QQYHRNPLS |
| 1.2 nM | 6/6 | VFSGQWDGVTTENSAVA | NVDERML | QQYNRLPLM |
| 570 pM | 6/6 | KLNQSVLYESRNKNSVA | NASTRES | QQYHRLPLS |
| 7.1 nM | 3/6 | ILSQSVLMGSHLKNSVA | QASTRFS | QQYFRLPLM |
| 4.7 nM | 6/6 | KISQMVRVGSTVKNSIA | EEVTRAN | QQYHRLPLA |
| 790 pM | 6/6 | KLSQSTLYEQRNCNSVA | NASQRES | QQYHRLPLS |
| 51 nM | 6/6 | KLSQAVNMTGKNKNSVA | ELSFRES | QQYERLPLS |
| 3.5 nM | 6/6 | KFSDSVMYESRNKNSVA | WASTRES | QQYHRLPLS |
| 3.2 nM | 6/6 | KIQQSWLYESRNINNVA | NCSKRES | QQYHRLPLS |
| 510 pM | 6/6 | KLQQSVLYESRNKNSVA | EASTRCD | QQYHRLPLS |
| 11 nM | 6/6 | TISQMTSLFSQSINNVA | EVSMREL | QQYDRLPLA |
| 1.8 nM | 6/6 | RIQQQMAGFEKEAANIA | STAVRLW | QQYARLPFI |
| 7.0 nM | 6/6 | KISLLINQTFETSNNVA | EMVTREK | QQYHRLPLS |
| 45 nM | 2/6 | KYSKSVLYESRNKNSVA | WASTRES | QQYHRLPLS |
| 48 nM | 6/6 | KLHQSVLYESRHKNNVA | NASQRES | QQYHRLPLS |
| 51 nM | 6/6 | KSSQSVLHMSLNKNSVA | WASTRVS | QQYHRLPLS |
| 390 pM | 6/6 | KLEQSFLYESRNKNSVA | NASTRMS | QQYHRLPLS |
| 700 pM | 6/6 | KVSQSWLMESRNKNSVA | EASTRVS | QQYHRLPLS |
| 59 nM | 6/6 | SVHFYGTTGEQNRESIA | ENSIRVE | QQYSHLPLL |
| 1.0 nM | 6/6 | KSSGSFLYESRNKNSVA | GASTRES | QQYHRLTLS |
| 840 pM | 6/6 | KSSQSVLGEQRNKNSVA | DKSTRES | QQYHRLPLS |
| 2.3 nM | 6/6 | KLSQSVEYEARDKNSVA | MASTRMS | QQYHRLPLS |
| 630 pM | 6/6 | KFSQAWMYEQRNKNSVA | NASQRES | QQYHRLPLS |
| 2.3 nM | 6/6 | KSSQSVLYEGSNKNSIA | DASTRES | QQYHRLPLS |
| 550 pM | 6/6 | KVQQSVLYESRNKNSVA | DASTRLS | QQYHRLPLS |
| 360 pM | 6/6 | KLSQSVLYESRNKNAVA | DASQRES | QQYHRLPLS |
| 11 nM | 6/6 | KLSSLQFDSYMQKENVA | ESTQVFN | QQYHHLPLT |
| 180 nM | 4/6 | QIQFLDVQYGVKEQAIA | EENQRHQ | QHYFRLPLS |
| 7.1 nM | 6/6 | KSSQSVLTESRNKDSVA | NASTRES | QQYLRLPLS |
| 13 nM | 6/6 | RLTEHTSERAYADASVA | NASTRND | QQYHRLPLA |
| 6.0 nM | 6/6 | KFSQMVLTGAYVSNSVA | QMSTRVN | QQYHRLPLS |
| 9.6 nM | 6/6 | KIGMTLNQMMHKKNNVA | DLVERAN | QQYHRLPLS |
| 740 nM | 6/6 | MIAAGLRGVGRNKNSVA | NAQTRES | QHYHRLPLS |
| 680 pM | 6/6 | KISQSVLYESRNKNSVA | DASTRSS | QQYHRLPLS |
| not detected | 0/6 | KSYQSFLYESRNKNSVA | GASTRES | QNYHRLTLS |
| 1.3 nM | 6/6 | HLSPSVLYESRNKNSVA | NASTRSS | QQYHRLPLS |
| 98 nM | 4/6 | KLSMSMLLESFHKNSVA | ENSTREA | QHYHRLPLS |
| 1.4 nM | 6/6 | TINQSAQMESHNKNSVA | DLSVRGS | QQYHRLPLS |
| 1.2 nM | 6/6 | HISQMWMLESKNKNNVA | EESTRND | QSYFRLPLS |
| 5.7 nM | 6/6 | KESQSVLYESRNKNSVA | SASTRES | QQYNRLPLS |
| 1.8 nM | 6/6 | KLMQGWDMESRNKNSVA | NASMRLD | QQYHRLPLS |
| 230 nM | 5/6 | MISQLYNMGSFAINSVA | QASMRNA | QQYDRLPLM |
| 820 pM | 6/6 | KGSFSYLLESRNKNSVA | EASTRES | QQYHRLPLS |

A selection of 4 entries from above:

| CDR-L1 | CDR-L2 | CDR-L3 | Kd (apparent) | replicates with signal |
|---|---|---|---|---|
| KVQQSVLYESRNKNSVA | DASTRLS | QQYHRLPLS | 550 pM | 6/6 |
| KFSQSVFYESHNKNSVA | WASTCES | QQYHRLPLS | not detected | 0/6 |
| KSSGSVQGEDRNSNSVA | NASQRES | QQYHRLPLS | 2.8 nM | 6/6 |
| KFSQAWMYEQRNKNSVA | NASQRES | QQYHRLPLS | 630 pM | 6/6 |

Background: pairings of all light chain designs with three empty control strains gave a value in 4% of cases (median 430 nM, 5th percentile 38 nM). Values in that range, when seen in few replicates, are hard to tell from nonspecific mating.
The authors' rule: three or more of the six replicates give a measured affinity, fewer mean a poor binder.
The range of this assay differs from that of the first round, and the authors advise against merging the two.

Data: MIT Lincoln Laboratory AlphaSeq set, Li et al. 2023, doi:10.1038/s41467-023-39022-2, as distributed in FLAb.